Data published in patent US12059562B2, “Systems for electrical stimulation” (priority 2018, dated 2024).

Settings: micropost tips 40% G6PD and 60% PEO 200k versus uncompressed powder
From the text: To perform the activity assay on G6PD, an activity assay kit (Sigma Aldrich) was used which measures the amount of oxidized glucose-6-phosphate.

## glucose-6-phosphate dehydrogenase
  enzymatic activity after the manufacturing process: maintain their activity
